From paper PMC7948460, “Volatile allosteric antagonists of mosquito odorant receptors inhibit human-host attraction” (The Journal of Biological Chemistry, 2020)
Where two headings read alike, the source gives them in different places.

Protein sequences, listed by entry. Tags and fused reporters are not part of them. Lines headed by an entry give the natural chain unless they say otherwise; changes in a name come on top.
UniProt Q7QCC7: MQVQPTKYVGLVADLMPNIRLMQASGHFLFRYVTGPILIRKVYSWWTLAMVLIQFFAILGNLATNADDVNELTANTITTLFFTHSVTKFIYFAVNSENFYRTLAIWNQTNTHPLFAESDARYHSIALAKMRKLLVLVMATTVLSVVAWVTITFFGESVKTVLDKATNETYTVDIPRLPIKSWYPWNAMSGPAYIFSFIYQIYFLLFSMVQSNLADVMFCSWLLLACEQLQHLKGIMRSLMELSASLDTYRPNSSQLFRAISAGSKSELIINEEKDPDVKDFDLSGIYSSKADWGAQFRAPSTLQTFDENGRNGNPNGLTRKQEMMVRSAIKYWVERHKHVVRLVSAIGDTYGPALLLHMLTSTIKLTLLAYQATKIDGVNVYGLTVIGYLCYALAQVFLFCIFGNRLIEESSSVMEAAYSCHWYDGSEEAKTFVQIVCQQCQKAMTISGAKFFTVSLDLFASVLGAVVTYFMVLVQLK

Experiments:
AgamORco [1] = target: T1, AgamORco (Anopheles gambiae, UniProt Q7QCC7); test: Insect cell-based (Bm5) AgamORco/Photina Ca2+ influx luminescence assay; conditions: for OA-induced ORco response in the presence of the antagonist, relative to maximal (100%) response without antagonist: 100 μM antagonist; for Type of antagonism relative to ORcoRAM2 binding site: antagonist dose-response at 50 and 150 μM OA; for pIC50, inhibition of OA-dependent AgamORco channel activity: 100 μM ORcoRAM2 (OA); for IC50: read-out: IC50 in binding competition assay
AgamORco [2] = target: T1, AgamORco; conditions: previously characterized ORco antagonist, cited from earlier work
[3] = single compound 25 μM + 100 μM OA
[4] = single compound 50 μM + 100 μM OA
[5] = single compound 75 μM + 100 μM OA

## Cc1ccc(C(C)C)cc1O [CRV, Carvacrol]
AgamORco [1]
  OA-induced ORco response in the presence of the antagonist, relative to maximal (100%) response without antagonist: 45%
  Type of antagonism relative to ORcoRAM2 binding site: non-competitive (allosteric) antagonist
AgamORco [1]; [3]
  % Inhibition (±SD) of OA-induced ORco luminescence response: 31.75 ± 1.21%
AgamORco [1]; [4]
  % Inhibition (±SD) of OA-induced ORco luminescence response: 43.50 ± 2.51%
AgamORco [1]; [5]
  % Inhibition (±SD) of OA-induced ORco luminescence response: 47.20 ± 1.82%

## C=CC(C)(CCC=C(C)C)OC(C)=O (stereo not drawn) [LA, Linalyl acetate]
AgamORco [1]
  pIC50, inhibition of OA-dependent AgamORco channel activity: 4.169 ± 0.1595

## Cumin alcohol
AgamORco [1]; 50 μM ORcoRAM2 (OA)
  pIC50 in binding competition assay: 4.072 ± 0.2314
  IC50: 84.7 µM
AgamORco [1]
  pIC50, inhibition of OA-dependent AgamORco channel activity: 4.082 ± 0.2848
  OA-induced ORco response in the presence of the antagonist, relative to maximal (100%) response without antagonist: 52%
  Type of antagonism relative to ORcoRAM2 binding site: allosteric inhibitor
AgamORco [1]; 150 μM ORcoRAM2 (OA)
  pIC50 in binding competition assay: 4.109 ± 0.1781
  IC50: 77.8 µM
AgamORco [1]; [3]
  % Inhibition (±SD) of OA-induced ORco luminescence response: 22.08 ± 0.78%
AgamORco [1]; [4]
  % Inhibition (±SD) of OA-induced ORco luminescence response: 27.46 ± 2.90%
AgamORco [1]; [5]
  % Inhibition (±SD) of OA-induced ORco luminescence response: 39.41 ± 3.09%

## Isopropyl cinnamate
AgamORco [2]
  pIC50, inhibition of AgamORco function: 4.379 ± 0.061
AgamORco [2]; read-out: IC50, inhibition of AgamORco function
  IC50: 41.7 µM
